Reference: publication PMC7807051, “Modulation of cAMP metabolism for CFTR potentiation in human airway epithelial cells” (Scientific Reports, 2021)

The chains behind the UniProt entries cited, without tags or fusion partners. Where a name states a change or a piece, a line headed by the entry shows the natural chain unless it says otherwise.
UniProt O15439: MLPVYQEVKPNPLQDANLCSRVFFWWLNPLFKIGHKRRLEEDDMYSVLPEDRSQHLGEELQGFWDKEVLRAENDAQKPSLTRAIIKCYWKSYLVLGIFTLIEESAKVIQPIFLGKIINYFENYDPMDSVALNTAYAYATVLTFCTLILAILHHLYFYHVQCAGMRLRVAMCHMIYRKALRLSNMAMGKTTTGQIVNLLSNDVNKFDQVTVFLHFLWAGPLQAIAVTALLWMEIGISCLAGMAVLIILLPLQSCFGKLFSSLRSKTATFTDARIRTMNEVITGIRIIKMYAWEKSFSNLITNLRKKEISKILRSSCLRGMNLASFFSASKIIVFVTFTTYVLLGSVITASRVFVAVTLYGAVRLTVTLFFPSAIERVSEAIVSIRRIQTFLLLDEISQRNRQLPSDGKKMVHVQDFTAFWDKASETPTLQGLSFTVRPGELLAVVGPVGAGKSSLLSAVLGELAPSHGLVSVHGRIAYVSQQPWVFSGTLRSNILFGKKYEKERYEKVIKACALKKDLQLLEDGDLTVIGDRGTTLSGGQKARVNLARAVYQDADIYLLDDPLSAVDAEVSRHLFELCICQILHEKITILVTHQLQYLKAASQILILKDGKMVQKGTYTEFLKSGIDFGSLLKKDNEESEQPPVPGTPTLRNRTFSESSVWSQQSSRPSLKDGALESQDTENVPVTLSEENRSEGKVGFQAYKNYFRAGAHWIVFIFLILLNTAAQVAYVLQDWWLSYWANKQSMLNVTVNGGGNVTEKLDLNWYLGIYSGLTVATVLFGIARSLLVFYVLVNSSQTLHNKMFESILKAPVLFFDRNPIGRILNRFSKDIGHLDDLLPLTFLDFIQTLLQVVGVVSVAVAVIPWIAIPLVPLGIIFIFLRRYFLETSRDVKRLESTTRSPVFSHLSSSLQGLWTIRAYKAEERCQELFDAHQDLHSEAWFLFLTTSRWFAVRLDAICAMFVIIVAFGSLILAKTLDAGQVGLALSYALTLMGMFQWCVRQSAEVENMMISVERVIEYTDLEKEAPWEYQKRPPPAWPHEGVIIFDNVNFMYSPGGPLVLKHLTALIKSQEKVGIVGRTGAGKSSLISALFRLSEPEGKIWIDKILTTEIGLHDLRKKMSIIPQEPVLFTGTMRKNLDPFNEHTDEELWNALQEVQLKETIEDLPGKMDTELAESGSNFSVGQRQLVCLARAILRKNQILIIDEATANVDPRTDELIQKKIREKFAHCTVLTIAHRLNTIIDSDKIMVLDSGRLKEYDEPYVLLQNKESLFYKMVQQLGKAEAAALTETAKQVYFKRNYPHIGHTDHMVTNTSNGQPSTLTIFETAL

Legend:
[1] = target: T1, ABCC4 (Homo sapiens, UniProt O15439); assay: In vitro extracellular cAMP assay of ABCC4 inhibitors in HBEC6-KT cells; type: cell-based; conditions: IBMX 20 μM pre-treatment, forskolin 10 μM, normalized to IBMX + forskolin, read-out: half maximal inhibitory concentration (IC50), extracellular cAMP
T1 construct: ABCC4 was present in both HBEC6-KT and Calu-3 cells at all-time points, indicated by the bands present at 150 kDa; endogenous in cells; host or cells: HBEC6-KT (immortalized human bronchial epithelial cells)
Method: (§1) Calu-3 and HBEC6-KT cells were cultured as described previously[41],[42],[71],[72]. Cells were pretreated with IBMX (20 μM) for 2 h prior to experimental conditions. After the pre-treatment of IBMX, cells were treated with ABCC4 inhibitors (0.01–100 μM) or DMSO for 30 min. Following these exposures, the cells were treated with forskolin (10 μM) for 6 h and cell-culture supernatants were collected for analysis of extracellular cAMP. The negative control was IBMX alone and the positive control was IBMX and forskolin.
(§2) For the in vitro extracellular cAMP assay, values were normalized to the positive control (IBMX and forskolin) and the half maximal inhibitory concentration (IC50) was determined. SD was calculated using data from biological replicates (n = 4–5).
Supplementary Figure 1: Concentration-response analysis of compounds with ABCC4 inhibition properties on extracellular cAMP from human airway epithelial cells. Human airway epithelial (HBEC6-KT) cells were pre-treated with IBMX (20 μM), exposed to (a) MK-571, (b) Ceefourin-1, or DMSO vehicle control, and then treated with forskolin (10 μM). Cell culture supernatants were assessed for cAMP levels 24h post-treatment. […] Each concentration-response curve was normalized to positive control (IBMX + forskolin) with data presented as means ± standard deviations (n=4, MK-571; n=5, Ceefourin-1).

[2] = target: T1, ABCC4; assay: In vitro extracellular cAMP assay of ABCC4 inhibitors in Calu-3 cells; type: cell-based; conditions: IBMX 20 μM pre-treatment, forskolin 10 μM, normalized to IBMX + forskolin, read-out: half maximal inhibitory concentration (IC50), extracellular cAMP
Method: Figure 1 Concentration–response analysis of compounds with ABCC4 inhibition properties on extracellular cAMP from human airway epithelial cells. Human airway epithelial (Calu-3) cells were pre-treated with IBMX (20 μM), exposed to (a) MK-571, (b) Ceefourin-1, or DMSO vehicle control, and then treated with forskolin (10 μM). Cell culture supernatants were assessed for cAMP levels 24 h post-treatment. Each concentration–response curve was normalized to positive control (IBMX + forskolin) with data presented as means ± standard deviations (n = 3, MK-571; n = 3, Ceefourin-1).
as §1, §2

In the case of `CN(C)C(=O)CCSC(SCCC(=O)O)c1cccc(/C=C/c2ccc3ccc(Cl)cc3n2)c1` (centres unmarked) [MK-571], the IC50 [1] is reported as 0.2 µM and the IC50 [2] is reported as 2.6 µM.
